In PubChem BioAssay AID1777 (Sanford-Burnham Center for Chemical Genomics, 2009):
Some of the results follow. Entries with a potency or affinity are not part of this list. The source made the active and inactive calls. Rule as the data show it: active = activation above about 50% (passing the limit was not always enough); inactive = the rest.

Amino acid sequences for entries named in this document (tags omitted). A change or cut given only in a name is not applied to a line headed by its entry.
UniProt P41145: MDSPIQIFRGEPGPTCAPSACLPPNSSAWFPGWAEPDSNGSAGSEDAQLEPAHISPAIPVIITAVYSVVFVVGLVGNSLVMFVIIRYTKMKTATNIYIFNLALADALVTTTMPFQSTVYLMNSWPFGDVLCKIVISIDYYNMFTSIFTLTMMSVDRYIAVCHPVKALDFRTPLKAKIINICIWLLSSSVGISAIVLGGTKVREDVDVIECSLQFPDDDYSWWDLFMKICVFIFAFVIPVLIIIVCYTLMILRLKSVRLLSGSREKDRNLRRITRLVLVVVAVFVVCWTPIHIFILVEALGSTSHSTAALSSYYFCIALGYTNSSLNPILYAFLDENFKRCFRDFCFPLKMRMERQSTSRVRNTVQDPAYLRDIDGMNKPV

Each molecule was assayed against Kappa-type opioid receptor (Homo sapiens) (UniProt P41145) (assay: KOR agonists, beta-arrestin recruitment, primary screen, cell-based, luminescence, uHTS (AID 1777)). Conditions: at 10 µM, active compounds read high.
With Cc1ccc(CSc2nc3ccncc3n2CC(=O)Nc2cc(C)cc(C)c2)cc1 the activation was inactive: 11.6%. For NNC(=O)Cn1c(-c2nonc2N)nc2ccccc21, the activation was inactive: -5.5%. With Cn1c(=O)c2c(nc(CN3CCOCC3)n2CCN2CCOCC2)n(C)c1=O the activation was inactive: 7.2%. In the case of CC1Cc2ccccc2N1C(=O)Cn1cnc2ccccc21 (stereo unspecified), the activation is reported as inactive: -1.6%. With O=S(=O)(Nc1ccc2c(c1)nc1n2CCN(Cc2ccccc2)C1)c1ccc(F)cc1 the activation was inactive: 7.2%. In the case of COc1cccc(CNc2nc3ccccc3n2CCN2CCCCC2)c1OC, the activation is reported as inactive: 4%. In the case of O=C(OC1CN2CCC1CC2)c1cccc([N+](=O)[O-])c1 (stereo unspecified), the activation is reported as inactive: -0.1%. In the case of CCC(C)[C@H](NC(=O)N1CCn2c1nc1ccccc12)C(=O)NCC1CCCO1 (stereo partly specified), the activation is reported as inactive: -1.6%. For CCCCOc1ccccc1NC(=O)Cn1c(-c2nonc2N)nc2ccccc21, the activation was inactive: -2.2%. In the case of CCc1cccc(C)c1N(C(=O)Cn1c(=O)[nH]c2ccccc21)C(C)COC (stereo unspecified), the activation is reported as inactive: -2.1%. COc1ccc(CCNC(=O)[C@H](CC(C)C)NC(=O)N2CCn3c2nc2ccccc23)cc1OC was tested, and the activation was inactive: -8.8%. With O=C1Cn2c(nc3ccccc32)-c2ccccc2N1 the activation was inactive: 4%. For CCC(NC(=O)Cn1cnc2c(=O)n(C)c(=O)n(C)c21)c1ccccc1 (stereo unspecified), the activation was inactive: 3.9%. With CCN(CC)C(=O)Cn1cnc2c1c(=O)n(C)c(=O)n2C the activation was inactive: -3.4%. In the case of CC(C)N(C(=O)Cn1c(Cl)nc2ccccc21)C(C)C, the activation is reported as inactive: -4.5%. In the case of CCOC(=O)c1ccc(NC(=O)C(C)(CCl)SC)cc1 (stereo unspecified), the activation is reported as inactive: 9.8%. For O=C(Cn1c(-c2cscn2)nc2ccccc21)Nc1cc(F)ccc1F, the activation was inactive: -0.4%. With Cc1ccc2c(c1)C1CN(C)CCC1N2C(=O)COc1ccc(S(=O)(=O)N2CCOCC2)cc1 (stereo unspecified) the activation was inactive: 3.9%. In the case of Cc1nc2ccccc2n1CC(=O)N/N=C\c1ccccn1, the activation is reported as inactive: 7.4%. For CC(C)NC(=O)Cn1c(SCC(=O)N2CCCc3ccccc32)nc2ccccc21, the activation was inactive: 0.4%. In the case of Cc1ccc(NC(=O)CCC(=O)N/N=C/C=C/c2ccccc2)cc1, the activation is reported as inactive: 2%. With CCc1ccc(NC(=O)Cn2c(SC)nc3ccccc32)cc1 the activation was inactive: -5.2%. In the case of CC1CC(C)CN(C(=O)Cn2c(SCC(=O)N3CCc4ccccc4C3)nc3ccccc32)C1 (stereo unspecified), the activation is reported as inactive: -3.6%. CCC(C)N(CC(C)C)C(=S)SC(NC(C)=O)C(Cl)(Cl)Cl (stereo unspecified) was tested, and the activation was inactive: 3.8%. With CCN1C(=O)C2(Nc3ccccc3-c3nc4ccccc4n32)c2cc(OC)ccc21 (stereo unspecified) the activation was inactive: -2%. COc1ccc(N2C(=O)CC(n3cnc4ccccc43)C2=O)cc1 (stereo unspecified) was tested, and the activation was inactive: 1.3%. With COc1ccccc1NC(=O)Cn1cnc2c1c(=O)n(C)c(=O)n2C the activation was inactive: 0.4%. For Cc1ccc2c(c1)[C@@H]1CN(C)CC[C@@H]1N2C(=O)Nc1cccc(C(F)(F)F)c1, the activation was inactive: 0.9%. In the case of CCOC(=O)c1ccccc1NC(=O)CSc1nc2ccccc2n1CC(=O)N1CCCC1, the activation is reported as inactive: -6.6%. With Cc1ccc(-c2csc(NC(=O)Cn3cnc4c3c(=O)n(C)c(=O)n4C)n2)cc1C the activation was inactive: 6.5%. CSc1nc2ccccc2n1CC(=O)Nc1ccccc1 was tested, and the activation was inactive: -5.9%. For Cc1nc2ccccc2n1CCN1CCOCC1, the activation was inactive: 2.8%. O=C(Nc1ccc2c(c1)nc1n2CCN(C2CCCCC2)C1)NC1CCCCC1 was tested, and the activation was inactive: 2.8%. CN1C(=O)C2(Nc3ccccc3-c3nc4ccccc4n32)c2ccccc21 (stereo unspecified) was tested, and the activation was inactive: -1.5%. Cc1ccc2c(c1)C1CN(C)CCC1N2C(=O)Cc1cccs1 (stereo unspecified) was tested, and the activation was inactive: 6%. For Cc1ccc(NC(=O)Cn2cnc3ccccc32)cc1C, the activation was inactive: -1.8%. In the case of CCC(C)[C@H](NC(=O)N1CCn2c1nc1ccccc12)C(=O)NCc1ccccc1 (stereo partly specified), the activation is reported as inactive: -6.3%. O=C(Nc1ccccc1C(F)(F)F)N1CCC(n2c(=O)[nH]c3ccccc32)CC1 was tested, and the activation was inactive: 5.2%. In the case of CC(C)[C@H](NC(=O)N1CCn2c1nc1ccccc12)C(=O)N[C@H](Cc1ccccc1)C(=O)O, the activation is reported as inactive: 2.1%. For N#CCC(=O)N/N=C\c1cccc(OC/C=C/c2ccccc2)c1, the activation was inactive: 5.2%. O=C(C1CCN(S(=O)(=O)c2cccc3nsnc23)CC1)N1CCn2c1nc1ccccc12 was tested, and the activation was inactive: -15.8%. In the case of N=c1n(CCN2CCCCC2)c2ccccc2n1CC(=O)c1cccs1, the activation is reported as inactive: 2.8%. Cn1c(=O)c2c(ncn2CC(=O)N/N=C/C=C\c2ccccc2[N+](=O)[O-])n(C)c1=O was tested, and the activation was inactive: 0.1%. With CN(C)CCn1c(NCc2ccc3c(c2)OCO3)nc2ccccc21 the activation was inactive: 2%. COP1(=S)c2c(C)nn(CCC#N)c2N=C(c2ccc(F)cc2)N1C (stereo unspecified) was tested, and the activation was inactive: 1.8%. For Cc1ccc(C)c(S(=O)(=O)N2CCN(C(=O)Cn3cnc4c3c(=O)n(C)c(=O)n4C)CC2)c1, the activation was inactive: -3.9%. C=CCn1c(=O)c2c(nc3n2CCN3c2cccc(Cl)c2C)n(C)c1=O was tested, and the activation was inactive: -1.1%. CC(C)NC(=O)Cn1c(SCC(=O)NC2CCCC2)nc2ccccc21 was tested, and the activation was inactive: -0.3%. With COc1ccc2c(c1)C1(Nc3ccccc3-c3nc4ccccc4n31)C(=O)N2C (stereo unspecified) the activation was inactive: 1.3%. With COc1cccc(NC(=O)[C@H](CC(C)C)NC(=O)N2CCn3c2nc2ccccc23)c1 the activation was inactive: -1.5%. CC(C)[C@H](NC(=O)N1CCn2c1nc1ccccc12)C(=O)NC1CC1 was tested, and the activation was inactive: 0%. For CCc1cccc(C)c1N(C(=O)Cn1c(COC)nc2ccccc21)C(C)COC (stereo unspecified), the activation was inactive: -8.2%. With O=[N+]([O-])c1ccc2c(c1)nc1n2CCN(c2ccccc2)C1 the activation was inactive: -0.1%. O=C(c1ccccc1)N1CCn2c(nc3ccccc32)C1 was tested, and the activation was inactive: -0.3%. CC(NC(=O)Cn1cnc2c1c(=O)n(C)c(=O)n2C)c1ccccc1 (stereo unspecified) was tested, and the activation was inactive: -1.2%. In the case of O=C(Cn1cnc2ccccc21)Nc1ccc(SC(F)F)cc1, the activation is reported as inactive: -0.5%. O=C(C1CCCN(S(=O)(=O)c2cccnc2)C1)N1CCn2c1nc1ccccc12 (stereo unspecified) was tested, and the activation was inactive: 1.2%. In the case of CCC(C(=O)NC1CCCCC1)n1c(SCc2cccc(C)c2)nc2ccncc21 (stereo unspecified), the activation is reported as inactive: -0.6%. With CCOCN(C(=O)Cn1cnc2ccccc21)c1c(C)cccc1CC the activation was inactive: -3.4%. Cc1nc2cc(C(F)(F)F)ccc2n1CCNc1nc(-c2ccc(F)cc2)cs1 was tested, and the activation was inactive: -1%. With c1ccc(Cn2c(CNc3nc4ccccc4n3CCN3CCOCC3)nc3ccccc32)cc1 the activation was inactive: 3.6%. For O=C(Nc1ccncc1[N+](=O)[O-])c1ccc([N+](=O)[O-])cc1[N+](=O)[O-], the activation was inactive: -3.4%. In the case of COc1ccc(/C=N/NC(=O)Cn2cnc3c2c(=O)n(C)c(=O)n3C)c(OC)c1OC, the activation is reported as inactive: 2.6%. For O=C(Cn1cnc2ccccc21)Nc1ccc(F)c(F)c1, the activation was inactive: -0.2%. With COC(=O)c1cccc(NC(=O)Cn2cnc3c2c(=O)n(C)c(=O)n3C)c1 the activation was inactive: -5.3%. For O=C(COc1ccccc1)OC1CN2CCC1CC2 (stereo unspecified), the activation was inactive: -1.5%. With Cn1c(=O)c2c(ncn2CC(=O)N2CCc3ccccc3C2)n(C)c1=O the activation was inactive: -0.5%. CCC[n+]1cn(/C(C(=S)Nc2cccc(Cl)c2C)=C(/[O-])c2ccc(OC)c(OC)c2)c2ccccc21 was tested, and the activation was inactive: -3.2%. For COc1ccc(OCC(=O)N2c3ccc(C)cc3C3CN(C)CCC32)cc1 (stereo unspecified), the activation was inactive: 0.9%. O=C(CCCCCNC(=O)N1CCn2c1nc1ccccc12)NCCc1ccccc1 was tested, and the activation was inactive: 5%. Cc1ccc2c(c1)[C@@H]1CN(C)CC[C@@H]1N2S(=O)(=O)c1ccc([N+](=O)[O-])cc1 was tested, and the activation was inactive: 0.1%. With NNC(=O)Cn1c(-c2ccccn2)nc2ccccc21 the activation was inactive: -3.9%. With COc1cc(NC(=O)[C@H](C)NC(=O)N2CCn3c2nc2ccccc23)cc(OC)c1 the activation was inactive: 2%. For Cc1ccc(NC(=O)Cn2c(=S)[nH]c3ccccc32)cc1, the activation was inactive: 3.1%. With Cn1c(=O)c2c(ncn2CC(=O)NCc2cccnc2)n(C)c1=O the activation was inactive: -1.3%. In the case of Cn1c(=O)[nH]c(=O)c2c1ncn2CCN1CCCCC1, the activation is reported as inactive: -2.9%. In the case of CCOC(=O)Nc1cccc([As](=O)(O)O)c1, the activation is reported as inactive: 2.7%. Cn1c(=O)n(Cc2ccccc2)c(=O)c2c1nc1n2CCN1Cc1ccco1 was tested, and the activation was inactive: -2.5%. For Cn1c(=O)c2c(ncn2CC(=O)N/N=C/c2ccc(Br)s2)n(C)c1=O, the activation was inactive: -1.3%. With C/C(=N\NC(=O)Cn1c(C)nc2ccccc21)c1cccs1 the activation was inactive: 6.3%. In the case of O=C(Cn1c(CCCO)nc2ccccc21)Nc1ccccc1-c1ccccc1, the activation is reported as inactive: 6.5%. In the case of CCCNC(=O)Cn1c(=O)n(C)c2ccccc21, the activation is reported as inactive: 3.3%. CC1CN(Cc2nc3c(c(=O)n(C)c(=O)n3C)n2CCN2CCOCC2)CC(C)O1 (stereo unspecified) was tested, and the activation was inactive: -2.3%. For CCNC(=S)N1CCn2c(nc3ccccc32)C1, the activation was inactive: -1.7%. With Cc1cc(SC(NC=O)C(Cl)(Cl)Cl)ncn1 (stereo unspecified) the activation was inactive: 2.8%. O=P(Nc1ccccn1)(c1cccc2ccccc12)c1cccc2ccccc12 was tested, and the activation was inactive: -4.7%. In the case of CCc1nc2ccccc2n1CC(=O)N1CCN(S(=O)(=O)c2cccc(C(F)(F)F)c2)CC1, the activation is reported as inactive: 0.3%. In the case of COc1ccccc1C(=O)OCCNC(=O)Cn1cnc2c1c(=O)n(C)c(=O)n2C, the activation is reported as inactive: -0.1%. For O=[N+]([O-])c1ccc(Nc2ccc(Oc3ccc([N+](=O)[O-])cc3[N+](=O)[O-])cc2)c([N+](=O)[O-])c1, the activation was inactive: 0.8%. With O=C(Cn1c(CC(=O)N2CCOCC2)nc2ccccc21)Nc1ccc2c(c1)OC(F)(F)O2 the activation was inactive: -5.2%. CCS(=O)(=O)c1nc2ccccc2n1CC(=O)N1CCOCC1 was tested, and the activation was inactive: -4.8%.
